Source: PubChem BioAssay AID625 (Vanderbilt High Throughput Screening Facility, 2007)
The list shows a part of the results, in another mix than the full data. The source made the active and inactive calls.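 Rule for the calls: active = fluorescence slope after compound addition differing from the mean of all tested samples at 99.7% confidence, mostly higher but some lower; inactive = the rest.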

Amino acid sequences for entries named in this document (tags omitted).
UniProt P08173, whole entry, looked up: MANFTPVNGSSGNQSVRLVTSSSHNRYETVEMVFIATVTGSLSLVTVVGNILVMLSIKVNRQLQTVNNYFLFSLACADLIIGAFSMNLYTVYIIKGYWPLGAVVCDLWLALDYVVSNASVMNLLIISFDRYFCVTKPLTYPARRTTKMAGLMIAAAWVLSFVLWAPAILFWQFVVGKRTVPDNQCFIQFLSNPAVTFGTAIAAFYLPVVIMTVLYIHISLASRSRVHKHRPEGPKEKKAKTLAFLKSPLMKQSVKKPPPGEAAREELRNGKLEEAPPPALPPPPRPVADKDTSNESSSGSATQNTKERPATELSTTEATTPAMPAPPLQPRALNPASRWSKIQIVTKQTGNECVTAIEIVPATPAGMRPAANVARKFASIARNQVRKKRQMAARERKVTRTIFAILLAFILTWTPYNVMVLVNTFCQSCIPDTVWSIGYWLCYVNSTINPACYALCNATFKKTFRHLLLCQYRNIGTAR

Molecular target: Muscarinic acetylcholine receptor M4 (Homo sapiens) (UniProt P08173)
Test: M4-linked GIRK flux change, two-sided – cell-based, HEK293 M4/GIRK, thallium flux, BTC-AM, M4 allosteric agonist project, primary screen (AID 625);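 note: thallium influx through GIRK channels coupled to M4 in HEK293 cells with BTC-AM dye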
Details: at 10 µM, actives lie on both sides

Q: With `Cc1cccc(OCC(=O)OC2CN3CCC2CC3)c1` (centres undefined) as the compound, how does the fluorescence slope read?
A: The fluorescence slope was inactive: 0.00453.

Q: With `Cc1nn(-c2ccccc2)c2c1P(=O)(N1CCOCC1)N(C)C(c1ccccc1)=N2` (centres undefined) as the compound, how does the fluorescence slope read?
A: Its fluorescence slope is inactive: 0.00613.

Q: Which fluorescence slope does the source give for `COP1(=S)c2c(C)nn(CCC#N)c2N=C(c2ccc(F)cc2)N1C` (centres undefined) here?
A: The fluorescence slope was inactive: 0.0103.

Q: How did the fluorescence slope turn out when `O=C(COc1ccccc1)OC1CN2CCC1CC2` (centres undefined) was run?
A: The fluorescence slope was inactive: 0.00488.
